Measured values from ChEMBL document CHEMBL1151566, “Cephem sulfones as inactivators of human leukocyte elastase. II. Keto-enol tautomerish in cephem-4-ketones” (Bioorg Med Chem Lett, 1992).

Tests used:
[1] = biological target: T1, Neutrophil elastase (Homo sapiens) (UniProt P08246); experiment: Inhibition of human leukocyte elastase II (HLE-II) as second order rate constant
T1 sequence (whole entry): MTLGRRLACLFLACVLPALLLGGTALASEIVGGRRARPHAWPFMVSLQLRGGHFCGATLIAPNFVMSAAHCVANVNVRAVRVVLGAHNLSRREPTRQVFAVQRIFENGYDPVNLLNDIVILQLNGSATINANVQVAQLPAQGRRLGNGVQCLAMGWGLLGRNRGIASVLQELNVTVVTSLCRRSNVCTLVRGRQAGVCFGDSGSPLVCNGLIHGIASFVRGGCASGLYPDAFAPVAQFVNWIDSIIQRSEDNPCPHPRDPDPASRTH

[2] = biological target: T1, Neutrophil elastase (Homo sapiens); experiment: Inhibitory activity against human leukocyte elastase-II (HLE-II) expressed as second order inhibition rate constant

k on [1] | k on [2] | Structure (SMILES)
26000 M⁻¹ s⁻¹ | – | CO[C@H]1C(=O)N2C(C(=O)C(C)(C)C)=C(CSc3nnnn3C)C(Sc3nnnn3C)S(=O)(=O)[C@H]12 (some centres undefined)
– | 2200 M⁻¹ s⁻¹ | CO[C@H]1C(=O)N2C(C(=O)c3ccccc3)=C(CSc3nnnn3C)C(Sc3nnnn3C)S(=O)(=O)[C@H]12 (some centres undefined)
18000 M⁻¹ s⁻¹ | – | CO[C@H]1C(=O)N2C(C(=O)c3ccccc3)=C(CSc3nnnn3C)CS(=O)(=O)[C@H]12
19000 M⁻¹ s⁻¹ | – | CO[C@H]1C(=O)N2C(C(=O)C(C)(C)C)=C(CSc3nnnn3C)CS(=O)(=O)[C@H]12
